{
  "source": "patent US6586389B1",
  "about": "“Cubilin protein, DNA sequences encoding cubilin and uses thereof” (Administrators of the Tulane Educational Fund, priority 1998, dated 2003)",
  "origin": "cited, not measured here",
  "system": "renal brush border membrane",
  "conditions": "cited from earlier work",
  "data": [
    {"substance": "β2-microglobulin: low molecular weight protein competing with light chain", "values": [
      {"measurement": "Competition with light chain for brush border membrane binding", "result": "competing"}
    ]}
  ]
}
